System: patient with bladder pain and overactive bladder
Settings: person; prior medications and procedures

CCOC(=O)N1CCC(=C2c3ccc(Cl)cc3CCc3cccnc32)CC1 [Loratidine]
symptomatic relief by prior treatment: had not been achieved

— patent publication US20240277700A1, “COMPOSITIONS AND METHODS FOR TREATING AND PREVENTING INTERSTITIAL CYSTITIS” (Hista RX LLC, priority 2021, published 2024)
